# Values quoted from earlier work, collected in patent publication US20160175296A1, “Method of producing uniform buprenorphine-containing formulations” (ARx, LLC, priority 2014, published 2016).
# Settings: reportedly, by reference
substance,measurement,value
Buprenorphine HCl,aqueous solubility,17 mg/mL
